Measurements reported in paper PMC2901518 (British Journal of Pharmacology, 2010).

Amino acid sequences for entries named in this document (tags omitted). Residues count along the entry.
UniProt P21555, 2-382: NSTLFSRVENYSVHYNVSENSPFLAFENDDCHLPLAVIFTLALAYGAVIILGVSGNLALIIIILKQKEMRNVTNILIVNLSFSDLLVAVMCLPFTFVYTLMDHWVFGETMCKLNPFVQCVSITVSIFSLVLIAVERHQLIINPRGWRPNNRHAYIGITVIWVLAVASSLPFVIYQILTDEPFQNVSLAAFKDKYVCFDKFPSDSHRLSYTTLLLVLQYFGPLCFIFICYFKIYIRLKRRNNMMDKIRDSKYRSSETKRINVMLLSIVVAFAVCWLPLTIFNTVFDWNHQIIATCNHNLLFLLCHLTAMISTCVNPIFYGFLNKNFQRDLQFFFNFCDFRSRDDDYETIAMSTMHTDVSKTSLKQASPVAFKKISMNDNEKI

Biological target: rat Y1 receptor (association with β-arrestin2) (Rattus norvegicus, UniProt P21555)
Test: cell-based
Conditions: pA2 (Schild plot), pooled, 30 min pre-incubation, NPY 60 min

Kb: 0.01 µM
Structure (SMILES): N=C(N)NCCC[C@@H](NC(=O)C(c1ccccc1)c1ccccc1)C(=O)NCc1ccc(O)cc1 [BIBP3226, (R)-N2-(diphenylacetyl)-N-[(4-hydroxyphenyl)methyl]-argininamide]
